This assay concerns the target Human Full Length PARG (Homo sapiens (Human), UniProt Q86W56). The assay can be described thus: PARG enzyme assay (TR-FRET). The format is biochemical. Conditions: read-out: PARG Biochem IC50.

Amino acid sequences for entries named in this document (tags omitted). A change or cut given only in a name is not applied to a line headed by its entry.
UniProt Q86W56: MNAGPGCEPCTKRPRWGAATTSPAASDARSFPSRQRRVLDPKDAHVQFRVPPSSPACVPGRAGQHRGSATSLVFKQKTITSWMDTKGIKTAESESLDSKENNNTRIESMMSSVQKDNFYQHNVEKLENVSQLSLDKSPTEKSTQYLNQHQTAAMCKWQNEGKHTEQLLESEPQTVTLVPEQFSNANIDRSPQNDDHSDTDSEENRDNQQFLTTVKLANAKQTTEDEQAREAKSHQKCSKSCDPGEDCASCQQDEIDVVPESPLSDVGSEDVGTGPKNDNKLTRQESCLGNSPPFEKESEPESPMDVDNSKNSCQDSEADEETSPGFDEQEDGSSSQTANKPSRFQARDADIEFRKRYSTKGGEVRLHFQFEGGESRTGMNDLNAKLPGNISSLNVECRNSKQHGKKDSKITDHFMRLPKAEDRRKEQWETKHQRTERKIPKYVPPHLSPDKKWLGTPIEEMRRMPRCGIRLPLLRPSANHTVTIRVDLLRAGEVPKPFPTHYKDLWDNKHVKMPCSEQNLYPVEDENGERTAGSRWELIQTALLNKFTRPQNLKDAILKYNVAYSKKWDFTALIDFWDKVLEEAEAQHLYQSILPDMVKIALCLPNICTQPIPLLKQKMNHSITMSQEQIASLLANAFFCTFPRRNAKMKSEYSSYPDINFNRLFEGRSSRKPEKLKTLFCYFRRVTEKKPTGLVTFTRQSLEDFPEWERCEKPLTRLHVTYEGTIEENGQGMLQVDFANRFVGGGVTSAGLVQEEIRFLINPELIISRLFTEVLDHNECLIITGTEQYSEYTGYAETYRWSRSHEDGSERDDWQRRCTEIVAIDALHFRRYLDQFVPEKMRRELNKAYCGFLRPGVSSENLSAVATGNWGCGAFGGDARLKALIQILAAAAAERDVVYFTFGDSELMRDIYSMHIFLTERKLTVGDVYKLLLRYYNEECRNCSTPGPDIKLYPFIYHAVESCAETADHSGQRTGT

As a reminder, the IC50 is the point on the concentration scale where inhibition reaches its midpoint. For the substance “1-[(2,5-Dimethylpyrazol-3-yl)methyl]-3-[(1-methylpyrazol-4-yl)methyl]-2,4-dioxo-N-[1-(trideuteriomethyl)cyclopropyl]quinazoline-6-sulfonamide [Example 490]”, the IC50 worked out at 29 nM.

The record behind these values is patent US10239843B2 (CANCER RESEARCH TECHNOLOGY LIMITED, priority 2014, dated 2019).
